Values of other authors as cited in PMC3813957 (Cancer prevention research (Philadelphia, Pa.), 2013).
Entries after “also recorded” stand apart in the source; their conditions may differ.

Legend:
[1] = test system: phosphorylation of EGFR, AKT and ERK; conditions: daily dosing, immunohistochemistry; cited from earlier work
[2] = test system: ER+ tumors with EGFR expression; conditions: gefitinib alone for up to 16 weeks; cited from earlier work

Question: For `COc1cc2ncnc(Nc3ccc(F)c(Cl)c3)c2cc1OCCCN1CCOCC1` [gefitinib], which “levels of phosphorylated EGFR and downstream phosphorylated proteins AKT and ERK” value [1] is on record?
Answer: decreased; also recorded: inhibited; also recorded: strongly inhibited

Question: And the “tumors showing a complete response” value [2]?
Answer: Roughly 40%
